# Results taken from patent US20180127465A1 (priority 2015, published 2018).
# How the values were obtained:
# [1] = biological target: MOR (Homo sapiens, UniProt P35372); test: [35S]GTPγS assay, MOR antagonist mode; conditions: FIG. 4A
# [2] = biological target: T1, DOR (Homo sapiens, UniProt P41143); test: [35S]GTPγS assay, DOR antagonist mode; conditions: FIG. 4A
# [3] = test system: MOR; conditions: literature value; cited from earlier work
# [4] = biological target: T2, KOR (Homo sapiens, UniProt P41145); test: [35S]GTP-γ-S binding assay, agonist mode, hKOR; conditions: Table 6; summary in words from binding and agonist/antagonist modes
# [5] = biological target: T2, KOR; test: [35S]GTP-γ-S binding assay, antagonist mode, hKOR; conditions: Table 6, % relative to 10 μM naloxone inhibition of 100 nM U50,488
# [6] = biological target: T1, DOR; test: Radioligand competition binding at DOR ([3H]DPDPE); conditions: read-out: Ki DOR, Table 6, Kd=0.50 nM, membranes of transfected HNB9.10 cells
# [7] = biological target: MOR (Rattus norvegicus, UniProt P33535); test: Radioligand competition binding at MOR ([3H]DAMGO); conditions: read-out: Ki MOR, Table 6, Kd=0.85 nM, membranes of transfected HNB9.10 cells
# [8] = biological target: T2, KOR; test: Radioligand binding at KOR ([3H]Nor-BNI), Table 3; conditions: read-out: Ki KOR [3H]Nor-BNI
# [9] = biological target: T2, KOR; test: Radioligand competition binding at KOR ([3H]U69,593), Table 6; conditions: read-out: Ki KOR, [3H]U69,593, Kd=5.3 nM, membranes of transfected HNB9.10 cells
compound,measurement,setting,value
Dmt-Pro-Phe-Phe(4-Cl)-Ppp,activity at MOR in words,[1],do not possess antagonist activity
same,activity at DOR in words,[2],do not possess antagonist activity
N=C(N)NCCC[C@@H](NC(=O)[C@@H](N)Cc1ccc(O)cc1)C(=O)N[C@@H](Cc1ccccc1)C(=O)N[C@@H](CCCCN)C(N)=O,preference for MOR over DOR,[3],"11,000 fold"
same,preference for MOR over KOR,[3],"2,500 fold"
NC(=O)[C@H](Cc1ccccc1)NC(=O)[C@H](Cc1c[nH]c2ccccc12)NC(=O)[C@@H]1CCCN1C(=O)[C@@H](N)Cc1ccc(O)cc1,preference for MOR over DOR,[3],"4,000 fold"
same,preference for MOR over KOR,[3],"15,000 fold"
C[C@@H](NC(=O)[C@@H](N)Cc1ccc(O)cc1)C(=O)NCC(=O)N[C@@H](Cc1ccccc1)C(N)=O,KOR function,[4],no function
same,KOR [35S]GTPγS-binding Imax at 10 μM,[5],<10^h %
CCCC[C@@H](NC(=O)[C@@H](N)Cc1ccc(O)cc1)C(=O)NCC(=O)N[C@@H](Cc1ccc(F)cc1)C(N)=O,Ki,[6],0.44 nM
same,KOR function,[4],weak agonist
same,Ki,[7],2.3 nM
same,Ki,[8],210 nM
same,Ki,[9],7.8 nM

# Marks after values point to notes of the source that are not given here.
